Experimental data reported in patent publication US20240327535A1 (EISAI R AND D MANAGEMENT, published 2024).

Target: T1, human BCMA on NCI-H929, OPM2 and Raji cells (human, UniProt Q02223 1-184)
T1 construct: endogenous BCMA of human cell lines; also called TNFRSF17; CD269
T1 chain: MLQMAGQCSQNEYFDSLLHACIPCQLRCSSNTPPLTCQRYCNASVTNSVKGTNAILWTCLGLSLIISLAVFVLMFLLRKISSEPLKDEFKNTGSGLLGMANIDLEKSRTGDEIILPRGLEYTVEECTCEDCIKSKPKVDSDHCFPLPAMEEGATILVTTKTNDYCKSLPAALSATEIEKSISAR
Assay: flow cytometry, NCI-H929 cells

B1: AB200-mcMMAF-05 (antibody, human IgG1, kappa, V domains shown)
VH: QVQLVQSGAEVKKPGSSVKVSCKASGGTFSNYWMHWVRQAPGQGLEWMGATYRGHSDTYYNQKFKGRVTITADKSTSTAYMELSSLRSEDTAVYYCARGAIYDGYDVLDNWGQGTLVTVSS
VL: DIQMTQSPSSLSASVGDRVTITCSASQDISNYLNWYQQKPGKAPKLLIYYTSNLHSGVPSRFSGSGSGTDFTLTISSLQPEDFATYYCQQYRKLPWTFGQGTKLEIKR
modifications: mcMMAF (ADL10-MMAF) linker-payload on cysteine residues of the antibody, DAR 4.0
notes: antibody-drug conjugate; also called AB200-ADL10-MMAF
**Q.** For B1, which Kd is on record?
**A.** 6.5 nM
